According to publication PMC10326142, “A phase I trial of the pan-ERBB inhibitor neratinib combined with the MEK inhibitor trametinib in patients with advanced cancer with EGFR mutation/amplification, HER2 mutation/amplification, HER3/4 mutation or KRAS mutation” (Cancer Chemotherapy and Pharmacology, 2023):
Read-outs that look alike come from different tables or passages of the source.

What was measured:
patients = conditions: cited from earlier work
[1] = mean (range), ref Infante et al. 32, cited from earlier work
[2] = Plasma pharmacokinetics of neratinib and trametinib co-administered, cycle 1 day 15 (LC/MS, noncompartmental); assay type: in vivo, human
Protocol: PK parameters for trametinib and neratinib were determined using noncompartmental analysis methods using Phoenix WinNonlin 8.1 (Certara USA Inc, Princeton, NJ, USA).

[3] = monotherapy 1mg, N=2, ref Infante et al 32
[4] = monotherapy 2mg, N=70, cell as count (percent), ref Infante et al 32

SMILES: CC(=O)Nc1cccc(-n2c(=O)n(C3CC3)c(=O)c3c(Nc4ccc(I)cc4F)n(C)c(=O)c(C)c32)c1 [trametinib]
- Grade > 3 TRAE: Diarrhea (patients; [3]): 0
- Grade > 3 TRAE: Rash (patients; [3]): 0
- Grade > 3 TRAE: Vomiting (patients; [3]): 0
- TRAE of all grades: Diarrhea (patients; [4]): 32 (46)
- TRAE of all grades: Fatigue (patients; [4]): 21 (30)
- TRAE of all grades: Rash (patients; [4]): 59 (84)
- AR (accumulation ratio) ([1]; single agent trametinib 2 mg, 13 patients): 5.97 (4.03–11.5)
- AR (accumulation ratio) ([1]; single agent trametinib 2.5 mg, 16 patients): 4.19 (1.02–13.1)
- AR (accumulation ratio) ([1]; single agent trametinib 3 mg, 16 patients): 5.93 (1.50–18.0)
- AR (accumulation ratio) ([2]; co-administered at dose level minus 1 (160 mg neratinib daily with 1 mg trametinib 5 days on and 2 days off), day 15, 8 patients, mean (range)): 13.9 (1.3–14.9)
- accumulation ratios (AR) relative to those reported by Infante et al. ([2]; day 15, co-administered with neratinib vs single agent (ref 32)): 2–3 times
